A short description of data set [1]: Half-life of ABP-LK-BH3 fusion polypeptide in mouse model with BH3 antibody. Type of data set: in vivo. As to conditions: for Half-life t1/2: mouse model.
In data set [2] the target is T1, human serum albumin (Homo sapiens, UniProt P02768).
T1 construct: purchased Sigma-Aldrich
The experiment in a line: Surface plasmon resonance (BIAcore 3000) affinity of ABP-LK-GLP fusion polypeptide to human serum albumin. As to conditions: SPR, 1 to 1 binding model, calculated from kon and koff; read-out: Kd (dissociation constant between fusion polypeptide and human serum albumin).

A short description of data set [3]: Half-life of ABP-LK-GLP fusion polypeptides in mouse model using GLP-1 antibody (competitive enzyme-linked immunoassay). The format is in vivo.
Data set [4] deals with Human thrombin and DPP IV. The experiment in a line: Cleavage of ABP-LK-GLP-1 with exogenous human thrombin and DPP IV in presence of HSA (HPLC/TOF-MS). Type of data set: in vitro ADME. As to conditions: thrombin and DPP IV digestion; for peptide MS integral area: 37° C., HSA present.
The nature of data set [5]: Half-life of ABP-LK-CT fusion polypeptide in mouse model using calcitonin antibody. The format is in vivo.
The conditions of data set [6]: Sung et al. 2003; cited from earlier work.
Data set [7] has as its target Human thrombin (Homo sapiens, UniProt P00734). The data set can be described thus: Cleavage of ABP-LK-GLP-1 with exogenous human thrombin in presence of HSA (HPLC/TOF-MS). Type of data set: in vitro ADME. The following applies: thrombin digestion; for peptide MS integral area: 37° C., HSA present.
The target of data set [8] is T2, human serum albumin (human, UniProt P02768 25-609).
T2 construct: Bought protein; coated on plates (ELISA) or coupled to a CM5 chip (SPR); also called HSA; human albumin
The experiment in a line: SPR (BIAcore 3000), HSA on CM5 chip, polypeptide injected, 1:1 model. A general note: SPR reads the build-up and loss of mass on a sensor chip optically.

In general, Kd refers to the equilibrium constant for the complex coming apart. The half-life is the time in which the quantity being followed falls by half.

Turning to “LPHSHRAHSLPPFNPRGA RYGRELRRMSDEFE [ABP-LK-BH3]”, the “enhancement of the half-life of BH3 in blood” value in data set [1] (fusion polypeptide versus BH3, mouse model) is on record as “up to 195 times”. Moreover, the entries for the “Half-life t1/2” value in data set [1] (12 μg polypeptide) and in data set [1] (100 μg polypeptide) were 42.3 h and 86.5 h, respectively.
Turning to “RYGRELRRMSDEFE [BH3, reference compound]”, the “Half-life t1/2” value is 0.4 h in data set [1] (12 μg polypeptide) and 0.74 h in data set [1] (100 μg polypeptide).
Regarding “PSSLLHWTHKIPALFNPRGS HAEGTFTSDVSSYLEGQAAKEFIAWLVKGRG [DP8.3]”, the Kd in data set [2] was 2920 nM.
On to “LPHSHRAHSLPPFNPRPP HAEGTFTSDVSSYLEGQAAKEFIAWLVKGRG [PP6.2]”, for which the “Half-life t1/2” value in data set [3] (11 μg polypeptide) was 35.6 h; in data set [3] (100 μg polypeptide) it was 49.5 h; in data set [3] (150 μg polypeptide) it was 98.3 h.
As to “PNICLPRWGCLWDFNPRGA HAEGTFTSDVSSYLEGQAAKEFIAWLVKGRG [DP4.1]”, the “peptide MS integral area” value was 12626709.1 in data set [4] (time 0 h); 9482015.7 in data set [4] (time 2 h); 6652133.7 in data set [4] (time 6 h); 4459186.4 in data set [4] (time 12 h); 2643753.6 in data set [4] (time 16 h); 912774.9 in data set [4] (time 24 h). The “The ratio of area” value in data set [4] (time 0 h) came out at 100%; in data set [4] (time 2 h), 75.1%; in data set [4] (time 6 h) it was 52.7%; in data set [4] (time 12 h), 35.3%; in data set [4] (time 16 h), 20.9%; in data set [4] (time 24 h) it was 7.2%.
Consider “LPHSHRAHSLPPFNPRPA HAEGTFTSDVSSYLEGQAAKEFIAWLVKGRG [PA6.2]”, for which the entries for the “Half-life t1/2” value in data set [3] (11 μg polypeptide), in data set [3] (100 μg polypeptide) and in data set [3] (150 μg polypeptide) were 26.4 h, 32.7 h and 65.4 h, respectively.
As to “LPHSHRAHSLPPFNPRGPCSNLSTCVLGKLSQELHKLQTYPRTNTGSGTP-NH2 [ABP-LK-CT]”, the results for the “Half-life t1/2” value in data set [5] (11 μg polypeptide) and in data set [5] (200 μg polypeptide) were 37.8 h and 76.3 h, respectively. Besides, the “enhancement of the half-life of calcitonin in blood” value in data set [5] (fusion polypeptide versus calcitonin) is recorded as “up to 70 times”.
For the molecule interferon-β, in data set [6], the half-life is 8 h.
As to “PLPHSHRAHSLPPFNPRGP HAEGTFTSDVSSYLEGQAAKEFIAWLVKGRG [DP6.2]”, the “Half-life t1/2” value in data set [3] (11 μg polypeptide) stood at 5.3 h; in data set [3] (100 μg polypeptide), 5.6 h; in data set [3] (150 μg polypeptide), 12.5 h. Also, the “peptide MS integral area” value came out at 10055375.5 in data set [7] (Time 0 h); 7974113.2 in data set [7] (Time 2 h); 6263427.6 in data set [7] (Time 6 h); 3764023.7 in data set [7] (Time 12 h); 2394306.8 in data set [7] (Time 16 h); 456948.1 in data set [7] (Time 24 h). Also, the Area ratio came to 100% in data set [7] (Time 0 h); 79.3% in data set [7] (Time 2 h); 62.3% in data set [7] (Time 6 h); 37.4% in data set [7] (Time 12 h); 23.8% in data set [7] (Time 16 h); 4.5% in data set [7] (Time 24 h). Besides, the Kd in data set [2] is 1440 nM.
“CSNLSTCVLGKLSQELHKLQTYPRTNTGSGTP-NH2 [CT, reference compound]”: the “Half-life t1/2” value in data set [5] (11 μg polypeptide) stood at 1.25 h; in data set [5] (200 μg polypeptide) it was 2.11 h.
“PDICLPRWGCLWEFNPRGA HAEGTFTSDVSSYLEGQAAKEFIAWLVKGRG [DP3.1]”: the Kd in data set [2] is 1030 nM. Besides, the “peptide MS integral area” value is 28079570.3 in data set [4] (time 0 h); 22632133.7 in data set [4] (time 2 h); 19234505.7 in data set [4] (time 6 h); 15977275.5 in data set [4] (time 12 h); 3743753.1 in data set [4] (time 16 h); 1881331.2 in data set [4] (time 24 h). The “The ratio of area” value in data set [4] (time 0 h) came out at 100%; in data set [4] (time 2 h), 80.6%; in data set [4] (time 6 h) it was 68.5%; in data set [4] (time 12 h) it was 56.9%; in data set [4] (time 16 h), 13.3%; in data set [4] (time 24 h), 6.7%.

B1: DP3.1 fusion polypeptide (peptide)
peptide: PDICLPRWGCLWEFNPRGAHAEGTFTSDVSSYLEGQAAKEFIAWLVKGRG
notes: ABP-LK-GLP fusion polypeptide; also called ABP-LK-GLP
The molecule B1 had a dissociation constant (Kd) in data set [8] of 1030 nM.

B2: DP8.3 fusion polypeptide (peptide)
peptide: PSSLLHWTHKIPALFNPRGSHAEGTFTSDVSSYLEGQAAKEFIAWLVKGRG
notes: ABP-LK-GLP fusion polypeptide, copied as printed with PSS at the N-terminus (DP8.1 and DP8.2 have PS); also called ABP-LK-GLP
The molecule B2 gave an equilibrium dissociation constant (Kd) in data set [8] of 2920 nM.

B3: DP6.2 fusion polypeptide (peptide)
peptide: PLPHSHRAHSLPPFNPRGPHAEGTFTSDVSSYLEGQAAKEFIAWLVKGRG
notes: as for B1
As for B3, the Kd in data set [8] worked out at 1440 nM.

The values are drawn from patent publication US20100075897A1, “METHOD FOR S[…] BIOACTIVE PEPTIDES AND APPLICATION THEREOF” (JINAN UNIVERSITY, priority 2008, published 2010).
